The structures appear in SMILES notation.

The assay concerns the target T1, Mucosa-associated lymphoid tissue lymphoma translocation protein 1 (Homo sapiens, UniProt Q9UDY8).
T1 sequence (Q9UDY8 whole entry): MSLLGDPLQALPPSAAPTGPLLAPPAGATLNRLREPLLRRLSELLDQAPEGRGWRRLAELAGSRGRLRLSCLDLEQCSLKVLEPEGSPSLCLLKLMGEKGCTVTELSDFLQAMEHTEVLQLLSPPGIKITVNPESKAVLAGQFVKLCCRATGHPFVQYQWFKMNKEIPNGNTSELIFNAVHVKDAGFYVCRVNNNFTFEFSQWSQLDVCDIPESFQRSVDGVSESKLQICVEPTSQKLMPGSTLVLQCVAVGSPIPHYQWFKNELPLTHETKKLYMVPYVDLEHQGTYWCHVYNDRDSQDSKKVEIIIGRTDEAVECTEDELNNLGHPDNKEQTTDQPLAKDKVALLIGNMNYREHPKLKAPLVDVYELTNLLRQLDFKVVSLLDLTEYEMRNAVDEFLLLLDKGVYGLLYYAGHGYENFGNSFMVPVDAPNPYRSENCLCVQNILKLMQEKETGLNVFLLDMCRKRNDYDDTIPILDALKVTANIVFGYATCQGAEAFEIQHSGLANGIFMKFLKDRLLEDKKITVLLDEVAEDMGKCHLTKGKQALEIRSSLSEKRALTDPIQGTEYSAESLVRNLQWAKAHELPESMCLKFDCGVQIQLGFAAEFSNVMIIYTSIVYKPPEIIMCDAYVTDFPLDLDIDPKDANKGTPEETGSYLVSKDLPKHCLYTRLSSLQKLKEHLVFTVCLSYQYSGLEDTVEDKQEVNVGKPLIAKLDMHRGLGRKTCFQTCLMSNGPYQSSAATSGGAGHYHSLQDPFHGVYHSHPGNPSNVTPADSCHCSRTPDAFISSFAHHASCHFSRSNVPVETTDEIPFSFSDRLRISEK
The assay can be described thus: biochemical.

A word on the IC50: it is the concentration at which inhibition is half-maximal. The low end stands for higher potency, the high end for lower potency. `CO[C@@H](C)[C@@H](OC)c1c(NC(=O)Nc2cnc(-n3nccn3)c(Cl)c2)cnc2cc(Cl)nn12` displayed an IC50 of 5 nM.

For the origin of these results see ChEMBL document CHEMBL6153172, “MALT1 Inhibitors and Degraders: Strategies for NF-κB-Driven Malignancies” (J Med Chem, 2025).
